Molecular target: hTAAR1 (Homo sapiens, UniProt Q96RJ0)
Assay: hTAAR1 functional assay (cAMP)
Type: cell-based
Settings: read-out: hTAAR1 EC50 (mean ± SEM (n))

By UniProt entry, the sequences of proteins in these tests, tags left out. Where a name states a change or a piece, a line headed by the entry shows the natural chain unless it says otherwise.
UniProt Q96RJ0: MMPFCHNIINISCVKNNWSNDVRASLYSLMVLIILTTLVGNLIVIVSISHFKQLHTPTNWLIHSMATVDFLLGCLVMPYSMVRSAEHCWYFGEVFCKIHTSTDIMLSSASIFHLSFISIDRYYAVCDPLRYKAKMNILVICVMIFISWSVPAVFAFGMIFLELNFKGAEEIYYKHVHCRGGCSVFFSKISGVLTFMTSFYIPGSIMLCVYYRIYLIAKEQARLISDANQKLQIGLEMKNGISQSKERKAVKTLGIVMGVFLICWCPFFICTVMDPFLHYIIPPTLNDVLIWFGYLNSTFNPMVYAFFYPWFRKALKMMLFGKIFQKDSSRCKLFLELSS

`NC1=N[C@@H](c2ccc(Cl)c(Cl)c2)CO1` showed an EC50 of 83.4 nM.
